Measured values reported in patent publication US20150246946A1, “PEPTIDES AND METHODS FOR TREATING CANCER” (AGENCY FOR SCIENCE, TECHNOLOGY AND RESEARCH, priority 2012, published 2015).

Chains of the proteins cited; added tags and fusions are not shown. Residues count along the entry.
UniProt Q00987, 7-134: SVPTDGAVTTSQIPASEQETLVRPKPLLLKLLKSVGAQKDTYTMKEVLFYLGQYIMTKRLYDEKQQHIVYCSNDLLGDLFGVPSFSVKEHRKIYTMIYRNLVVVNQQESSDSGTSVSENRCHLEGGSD
UniProt Q00987, 1-125: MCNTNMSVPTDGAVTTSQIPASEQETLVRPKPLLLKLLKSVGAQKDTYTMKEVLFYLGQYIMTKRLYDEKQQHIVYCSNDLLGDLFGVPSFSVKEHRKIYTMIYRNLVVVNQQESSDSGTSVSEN

Tests used:
[1] = target: T1, interaction of p53 with Mdm2 in living BHK cells (Homo sapiens, UniProt Q00987); assay: F2H co-localization assay p53:Mdm2; assay type: cell-based; details: live cell observations, FIG. 7
T1 construct: the prey is a fusion of either Mdm2 (7-134) or Mdm4 (1-129) with RFP; host or cells: transgenic BHK cells with lac operator repeats

Mdm2 (1-125) = target: T2, Mdm2 (1-125) (Homo sapiens, UniProt Q00987); assay: competitive fluorescence polarization/anisotropy, apparent Kd against Mdm2; assay type: binding; details: comparison of apparent Kds
T2 construct: Mdm2 (1-125) and Mdm4 (1-125) were ligated into the GST fusion expression vector pGEX-6P-1; GST (N, cleaved yes); made in house; host or cells: E. coli BL21 DE3
Protocol: The cells expressing the GST fusion constructs were grown in LB medium at 37° C. to an OD600 of ˜0.6 and induction was started with 1 mM IPTG and carried out overnight at room temperature. Cells were harvested by centrifugation and the cell pellets were re-suspended in 50 mM Tris pH 8.0, 10% sucrose and were then sonicated. The sonicated sample was centrifuged for 60 mins at 17,000 g at 4° C. […] The column was then further washed by 6 volumes of wash buffer. Mdm2 and Mdm4 were then purified from the column by cleavage with Precission (GE Lifesciences) protease. 10 units of precission protease, in one column volume of PBS with 1 mM DTT buffer, were injected onto the column. The cleavage reaction was allowed to proceed overnight at 4° C. […] Protein fractions were analyzed with SDS page gel and concentrated using a Centricon (3.5 kDa MWCO) concentrator, Millipore. […] Protein fractions were analyzed with SDS page gel and concentrated using a Centricon (3.5 kDa MWCO) concentrator from Millipore.
Apparent Kd values were determined for a variety of molecules via competitive fluorescence anisotropy experiments. […] Apparent Kd values were determined by fitting the experimental data to the equations shown below:
[L]st and [L]t denote labelled ligand and total unlabelled ligand input concentrations, respectively. […] Readings were carried out with a Envision Multilabel Reader (PerkinElmer). […]

- time to dissociation of Mdm2 from p53 [1]: ≤ 60 min
- preference between Mdm2 and Mdm4 in binding (Mdm2 (1-125)): preference for Mdm2 over Mdm4
Compound: COc1ccc(C2=N[C@@H](c3ccc(Cl)cc3)[C@@H](c3ccc(Cl)cc3)N2C(=O)N2CCNC(=O)C2)c(OC(C)C)c1 [nutlin, reference compound]
